Test results as given in patent publication US8173626B2, “Methods, dosing regimens and medications using anti-progestational agents for the treatment of disorders” (Danco Laboratories LLC, priority 2006, dated 2012).

Columns and labels:
uterine leiomyomata = assay: Randomized, double-blinded, placebo-controlled study of mifepristone 5 mg daily for symptomatic uterine leiomyomata (Example 11); type: in vivo, human; conditions: 6 months, P<0.001
Excerpt: The Study and Results are described in […] et al., Obstetrics & Gynecology, 108(6) (2006), hereby incorporated by reference in its entirety. […] Women were excluded if they were pregnant or intended to become pregnant during the next 6 months or had major medical morbidity or severe anemia, active mental illness, elevated liver enzymes, or substance abuse. Participants agreed to use barrier contraception and not to use hormonal or surgical treatments for leiomyomata during the course of the trial. Analgesic use was permitted. Using design 42 Study Subjects were randomly assigned to take either 5 mg mifepristone daily or a placebo, with twenty-two were randomized to treatment and 20 to placebo. […] Each questionnaire was administered at baseline, 1 month, 3 months, and 6 months, except the McGill Pain Questionnaire, which was assessed monthly. Bleeding was assessed by using daily menstrual logs and pictorial bleeding charts. A monthly blood loss index was calculated from menstrual history by assigning values […] to each day of spotting, indicating light, moderate, and heavy flow, respectively, and then summing the results. […] The uterus was measured in three planes and a total volume calculated. The five largest leiomyomata were identified, a volume calculated for each of the leiomyomata, and the results summed. […]

[1] = target: T1, progesterone receptor (PR) (Homo sapiens, UniProt P06401); conditions: cited from earlier work
T1 sequence (P06401 1-933): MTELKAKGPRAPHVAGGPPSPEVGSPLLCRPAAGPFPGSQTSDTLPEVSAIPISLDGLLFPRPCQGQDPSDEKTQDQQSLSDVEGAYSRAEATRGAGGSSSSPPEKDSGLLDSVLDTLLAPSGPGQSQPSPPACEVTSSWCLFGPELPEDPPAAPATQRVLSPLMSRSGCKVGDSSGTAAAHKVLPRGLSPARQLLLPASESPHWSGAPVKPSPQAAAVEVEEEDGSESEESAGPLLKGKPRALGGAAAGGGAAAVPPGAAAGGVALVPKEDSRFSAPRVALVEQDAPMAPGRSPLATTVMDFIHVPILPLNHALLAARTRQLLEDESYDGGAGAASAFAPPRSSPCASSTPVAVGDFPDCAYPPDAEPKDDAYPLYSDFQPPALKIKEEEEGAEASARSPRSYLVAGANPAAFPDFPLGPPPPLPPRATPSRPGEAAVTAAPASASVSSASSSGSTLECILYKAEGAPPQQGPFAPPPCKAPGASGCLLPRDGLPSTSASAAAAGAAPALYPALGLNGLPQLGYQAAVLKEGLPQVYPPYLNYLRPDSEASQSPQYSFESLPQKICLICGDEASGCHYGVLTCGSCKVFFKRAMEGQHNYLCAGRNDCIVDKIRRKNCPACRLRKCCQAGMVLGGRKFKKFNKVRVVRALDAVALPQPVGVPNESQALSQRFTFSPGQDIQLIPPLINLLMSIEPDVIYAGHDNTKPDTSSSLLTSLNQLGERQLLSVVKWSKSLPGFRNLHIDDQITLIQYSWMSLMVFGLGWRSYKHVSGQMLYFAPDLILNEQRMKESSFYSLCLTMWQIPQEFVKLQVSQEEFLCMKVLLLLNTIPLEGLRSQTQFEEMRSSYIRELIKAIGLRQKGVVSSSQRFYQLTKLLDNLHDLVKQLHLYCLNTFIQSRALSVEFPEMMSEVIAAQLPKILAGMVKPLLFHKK

CC#C[C@]1(O)CC[C@H]2[C@@H]3CCC4=CC(=O)CCC4=C3[C@@H](c3ccc(N(C)C)cc3)C[C@@]21C [mifepristone, 17-hydroxy-11-(4-dimethylaminophenyl)-17-(prop-1-ynyl)estra-4,9-dien-3-one]
mean blood loss index vs placebo (uterine leiomyomata): significantly lower
affinity for the progesterone receptor (PR) [1]: high affinity
